The test deals with T1, HDAC8 (Homo sapiens, UniProt Q9BY41).
T1 sequence (Q9BY41 1-377): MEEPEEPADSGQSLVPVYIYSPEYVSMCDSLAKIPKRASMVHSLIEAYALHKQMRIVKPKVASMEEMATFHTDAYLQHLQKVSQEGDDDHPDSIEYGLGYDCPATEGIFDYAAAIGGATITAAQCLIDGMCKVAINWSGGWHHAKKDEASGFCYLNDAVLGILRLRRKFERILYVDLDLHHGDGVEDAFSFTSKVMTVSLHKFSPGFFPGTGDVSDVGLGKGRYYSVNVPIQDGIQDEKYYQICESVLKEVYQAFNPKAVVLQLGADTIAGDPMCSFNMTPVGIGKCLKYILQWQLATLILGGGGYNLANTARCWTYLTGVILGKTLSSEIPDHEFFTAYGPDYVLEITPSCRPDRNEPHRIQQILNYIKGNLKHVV
Kind of test: HDAC inhibition assay (fluorogenic, Ac-Leu-Gly-Lys(Tfa)-AMC). In kind it is biochemical.

Molecules are shown by their SMILES.

By Ki is commonly meant a dissociation constant, usually derived from enzyme kinetics or from competition with a known ligand. Compound `O=C(CCCCCCC(=O)Nc1ccccc1)NO` [SAHA, reference compound] came in with a Ki of 650 ± 4 nM.

Source of the values: article PMC7782793, “Hydroxamic acid-modified peptide microarrays for profiling isozyme-selective interactions and inhibition of histone deacetylases” (Nature Communications, 2021).
